For one molecule, IC50 results are on record in ChEMBL document CHEMBL1158445, “Second generation of BACE-1 inhibitors part 2: Optimisation of the non-prime side substituent” (Bioorg Med Chem Lett, 2009).

Amino acid sequences for entries named in this document (tags omitted). A change or cut given only in a name is not applied to a line headed by its entry.
UniProt P56817: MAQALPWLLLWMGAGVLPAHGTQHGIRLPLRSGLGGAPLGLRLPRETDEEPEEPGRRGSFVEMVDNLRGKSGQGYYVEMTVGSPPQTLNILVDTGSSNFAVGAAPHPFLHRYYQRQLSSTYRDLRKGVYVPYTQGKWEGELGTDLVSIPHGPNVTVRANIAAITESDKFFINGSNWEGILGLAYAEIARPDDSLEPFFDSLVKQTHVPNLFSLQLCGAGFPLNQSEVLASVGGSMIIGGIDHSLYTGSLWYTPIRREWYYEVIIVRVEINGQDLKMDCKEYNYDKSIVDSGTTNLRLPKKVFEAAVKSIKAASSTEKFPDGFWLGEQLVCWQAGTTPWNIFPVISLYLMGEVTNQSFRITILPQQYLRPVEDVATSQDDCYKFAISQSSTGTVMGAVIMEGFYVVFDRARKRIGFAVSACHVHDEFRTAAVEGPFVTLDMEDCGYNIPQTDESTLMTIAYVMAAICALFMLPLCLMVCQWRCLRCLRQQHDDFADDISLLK

The target of this experiment is Beta-secretase 1 (Homo sapiens, UniProt P56817). Description: Inhibition of BACE1.

pIC50: −log10 of the molar value.

What is called pIC50 is −log10 of the IC50, conventionally taken in molar units. A lower pIC50 goes with a high IC50. In turn, `CCc1cn2c3c(cc(C(=O)N[C@@H](Cc4ccccc4)[C@H](O)CNCc4cccc(OC)c4)cc13)N(C)S(=O)(=O)CC2` gave a pIC50 of 8.70.
